Laboratory results: PubChem BioAssay AID2107 (National Center for Advancing Translational Sciences (NCATS), 2009)
This is a selection; strong and weak results do not stand in their true shares. Activity calls are given as the source filed them. Calls follow the shape of the dose curve; as a rule, active = well fitted inhibition curve with a large enough effect; inconclusive = small, poorly fitted or top-dose-only effect, or effect the other way; inactive = flat fitted curve, though single readings scatter.

Amino acid sequences for entries named in this document (tags omitted). Residues count along the entry.
UniProt P06280, 32-429 limits assumed: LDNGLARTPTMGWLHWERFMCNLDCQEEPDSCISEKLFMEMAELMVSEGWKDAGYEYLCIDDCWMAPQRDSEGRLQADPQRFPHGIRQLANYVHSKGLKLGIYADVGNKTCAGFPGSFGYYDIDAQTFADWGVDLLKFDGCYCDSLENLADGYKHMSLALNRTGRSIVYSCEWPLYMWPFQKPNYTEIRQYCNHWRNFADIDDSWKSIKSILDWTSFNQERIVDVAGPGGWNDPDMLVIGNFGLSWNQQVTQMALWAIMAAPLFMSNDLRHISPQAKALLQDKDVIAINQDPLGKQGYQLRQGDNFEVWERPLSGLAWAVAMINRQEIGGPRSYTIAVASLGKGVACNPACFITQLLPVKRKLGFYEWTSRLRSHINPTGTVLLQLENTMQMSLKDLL

Biological target: Alpha-galactosidase A (Homo sapiens) (UniProt P06280)
Assay: qHTS Assay for Inhibitors and Activators of Human alpha-Galactosidase From Spleen Homogenate;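 also: 0% = enzyme with vehicle and -100% = no enzyme basal signal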
Settings: 4MU-alpha-Gal fluorescence, 40 min; at 80 µM (top of the series)
Description: NIH Chemical Genomics Center [NCGC] NIH Molecular Libraries Probe Production Centers Network [MLPCN] MLPCN Grant: R03 MH084842-01 Assay Submitter (PI): Wei Zheng NCGC Assay Overview: Alpha-galactosidase is a homodimeric glycoprotein that hydrolyzes the terminal alpha-galactosyl moieties from glycolipids and glycoproteins. Deficiency of this enzyme results in Fabry Disease with progressive accumulation of globotriaosylceramide and other glycosphingolipids in vascular endothelial cells that causes renal failure, myocardial infarction and stroke, and premature death in patients. […]
NCGC Assay Protocol Summary: This is a fluorogenic enzyme assay with 4-methylumbelliferyl-alpha-D-galactopyranoside as the substrate and human spleen homogenate containing alpha-galactosidase as the enzyme preparation. Upon hydrolysis of this fluorogenic substrate, the resulting product, 4-methylumbelliferone (which excites at 365 nm and emits at 440 nm) can be detected by a fluorescence plate reader. […] The AC50 values were determined from concentration-response data modeled with the standard Hill equation. […] (3) Add 2 ul of substrate (1 mM final) (4) Incubate at 37C for 40 min (5) Add 2 ul stop solution (1M NaOH and 1M Glycine mixture, pH 10) (6) Detect the assay plate in a ViewLux plate reader (PerkinElmer) with Ex=365 nm and Em=440nm. […]

Row | SMILES | activity change, negative = inhibition
1 | CP(=O)(Nc1ccccn1)Oc1ccccc1 (stereo unspecified) | inactive: -3.45%
